# Values of other authors, collected in article PMC7792944, “Pharmacological Characterization of µ-Opioid Receptor Agonists with Biased G Protein or β-Arrestin Signaling, and Computational Study of Conformational Changes during Receptor Activation” (Molecules, 2020).
# Tested on: MOP
# Settings: dissociation from MOP; ref [43]; cited from earlier work
substance,measurement,value
buprenorphine,"residence time, higher than that of TRV130",18 fold
